In PubChem BioAssay AID463190 (Sanford-Burnham Center for Chemical Genomics, 2010):
This is a selection; strong and weak results do not stand in their true shares. Calls of active or inactive are those of the source.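 The calls were made as follows: active = inhibition of at least 40%; inactive = the rest.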

test: growth inhibition of tim10-1 ts yeast – luminescence, uHTS, primary screen (AID 463190);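 also: mutant grown at 25 °C; 0% = DMSO wells with yeast and 100% = wells holding no yeast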; settings: S. cerevisiae tim10-1 ts strain growth, BacTiter-Glo, 24 h; at 20 µM; stronger effect = higher value

Row | Compound | inhibition
1 | N#CC1(Nc2ccccc2)CCN(Cc2ccccc2)CC1 | inactive: 5.97%
2 | O=C(NCC1(N2CCCCC2)CCCCC1)c1ccc(Cl)s1 | inactive: -2.55%
3 | O=C(OC1CN2CCC1CC2)C1c2ccccc2Oc2ccccc21 (configuration not stated) | inactive: 18%
4 | COc1ccc(Cl)cc1C(=O)NCC1(N2CCOCC2)CCCCC1 | inactive: 9.39%
5 | CCOC(=O)N1CCC(Nc2ccc(OC)cc2)CC1 | inactive: 7.91%
6 | O=C(NCC1(N2CCCCC2)CCCCC1)c1ccc(Cl)nc1 | inactive: 15.2%
7 | Cc1cc(C)cc(N(C(=O)c2ccccc2)C2CCN(C(=O)OC(C)(C)C)CC2)c1 | inactive: 13.9%
8 | O=C(NCC1(N2CCOCC2)CCCCC1)c1cc2ccccc2o1 | inactive: 2.83%
9 | CSc1ccccc1C(=O)NCC1(N2CCCCC2)CCCCC1 | inactive: -8.38%
10 | COc1ccc(C(=O)NCC2(N3CCCCC3)CCCCC2)cc1 | inactive: 14.7%
11 | CC(C)(C)OC(=O)N1CCC(N(C(=O)c2ccccc2)c2ccc(F)cc2)CC1 | inactive: 12.5%
12 | COc1ccc(C(=O)NCC2(N3CCCCC3)CCCCC2)c(OC)c1OC | inactive: 19.5%
13 | O=C(NCC1(N2CCCCC2)CCCCC1)c1ccc(=O)[nH]c1 | inactive: -2.01%
14 | O=C(NCC1(N2CCCCC2)CCCCC1)c1cccs1 | inactive: 7.2%
15 | CCOC(=O)N1CCC(Nc2cccc(C)c2)CC1 | inactive: -7.55%
16 | Cc1ccc(OCC(C)C)c(CN(CCCl)CCCl)c1 | inactive: 10.9%
17 | CCCCOc1ccc(C(=O)NCC2(N3CCOCC3)CCCCC2)cc1 | inactive: 30.3%
18 | O=C(NCC1(N2CCCCC2)CCCCC1)c1ccc(F)cc1 | inactive: -2.09%
19 | COc1ccc(NC2CCN(CCc3ccccc3)CC2)c(OC)c1 | inactive: 1.13%
20 | CCOC(=O)N1CCC(Nc2ccc(F)cc2)CC1 | inactive: -1.06%
21 | CCOc1ccc(C)cc1CN(CCCl)CCCl | inactive: -15.7%
22 | COc1cc(C(=O)NCC2(N3CCCCC3)CCCCC2)ccc1OC(F)F | inactive: 3.21%
23 | O=C(NCC1(N2CCOCC2)CCCCC1)c1cc(=O)[nH]c2ccccc12 | inactive: -13.9%

Row | Compound | inhibition
24 | CN1CCN(CCOC(=O)C(O)(c2ccccc2)c2ccccc2)CC1 | inactive: 13.4%
25 | CC(C)c1ccc(C(=O)NCC2(N3CCOCC3)CCCCC2)cc1 | inactive: 27.2%
26 | COc1ccc(NC2CCN(C(=O)OC(C)(C)C)CC2)cc1 | inactive: 3.68%
27 | O=C(NCC1(N2CCCCC2)CCCCC1)c1cccc(C(F)(F)F)c1 | inactive: -8.23%
28 | CCN1CCC(Nc2ccc(Cl)cc2)CC1 | inactive: -17.3%
29 | N#CC1(Nc2ccccc2)CCN(CCc2ccccc2)CC1 | inactive: 8.43%
30 | CSc1ccc(C(=O)NCC2(N3CCOCC3)CCCCC2)cc1 | inactive: 8.33%
31 | O=C(NCC1(N2CCCCC2)CCCCC1)c1cccc([N+](=O)[O-])c1 | inactive: 3.42%
32 | O=C(NCC1(N2CCCCC2)CCCCC1)c1ccc(OC(F)F)cc1 | inactive: 21.1%
33 | CN1CCC(Nc2cccc(F)c2)CC1 | inactive: 0.555%
34 | O=C(NCC1(N2CCCCC2)CCCCC1)c1cncc(Br)c1 | inactive: -14%
35 | COc1cc(OC)c(C(=O)NCC2(N(C)C)CCCCC2)cc1OC | inactive: 3.11%
36 | O=C(NCC1(N2CCOCC2)CCCCC1)c1cc(F)c(F)cc1Cl | inactive: -14.5%
37 | CC(C)c1ccc(NC2CCN(C(=O)OC(C)(C)C)CC2)cc1 | inactive: 21.5%
38 | COc1ccc(CN(CCCl)CCCl)cc1Cl | inactive: -6.43%
39 | CN(C)c1cccc(C(=O)NCC2(N3CCCCC3)CCCCC2)c1 | inactive: 7.14%
40 | CCc1cc(C(=O)NCC2(N3CCCCC3)CCCCC2)sc1C | inactive: 2.78%
41 | O=C(OC1CN2CCC1CC2)C1c2ccccc2C=Cc2ccccc21 (configuration not stated) | inactive: 5.01%
42 | CCOC(=O)N1CCC(Nc2ccc(C)cc2)CC1 | inactive: 6.94%
43 | N/C(=N\O)c1c(N)no[n+]1[O-] | inactive: -8.03%
44 | COc1ccc(C(=O)NCC2(N3CCOCC3)CCCCC2)cc1OC | inactive: 7.11%
45 | COc1cc(C(=O)NCC2(N3CCOCC3)CCCCC2)cc(OC)c1C | inactive: 2.92%
46 | O=C(NCC1(N2CCOCC2)CCCCC1)c1cc(Br)ccc1Cl | inactive: 11.5%

Row | Compound | inhibition
47 | CN(C)C1(CNC(=O)c2cccc(C#N)c2)CCCCC1 | inactive: 4.6%
48 | c1ccc(CN2CCC(Nc3ccccc3)CC2)cc1 | inactive: 0.981%
49 | CCCN1CCC(Nc2cc(OC)cc(OC)c2)CC1 | inactive: -21.5%
50 | N#Cc1ccc(C(=O)NCC2(N3CCCCC3)CCCCC2)cc1 | inactive: 8.19%
51 | CC(C)(C)OC(=O)N1CCC(N(C(=O)c2ccccc2)c2ccc(Cl)cc2)CC1 | inactive: 16.7%
52 | O=C(NCC1(N2CCCCC2)CCCCC1)c1ccco1 | inactive: -9.99%
53 | CN(C)c1ccc(C(=O)NCC2(N3CCCCC3)CCCCC2)cc1 | inactive: 6.59%
54 | CCN1CCC(Nc2cccc(F)c2)CC1 | inactive: -9.53%
55 | Cc1ccc(C(=O)NCC2(N3CCCCC3)CCCCC2)o1 | inactive: 2.27%
56 | Fc1ccccc1NC1CCN(Cc2ccccc2)CC1 | inactive: -21%
57 | COc1cc(OC)cc(C(=O)NCC2(N3CCCCC3)CCCCC2)c1 | inactive: 20.5%
58 | CN1CCC(Nc2ccc(Cl)cc2)CC1 | inactive: 4.46%
59 | CCCOc1ccc(C)cc1CN(CCCl)CCCl | inactive: -13.8%
60 | COc1cc(OC)cc(C(=O)NCC2(N3CCOCC3)CCCCC2)c1 | inactive: -2.48%
61 | COc1cccc(C(=O)N(c2cc(C)cc(C)c2)C2CCN(C(=O)OC(C)(C)C)CC2)c1 | inactive: 24.5%
62 | CCC(CO)(C(=O)OC1CN2CCC1CC2)c1ccccc1 (configuration not stated) | inactive: -14%
63 | CC(C)(C)OC(=O)N1CCC(Nc2ccccc2)CC1 | inactive: -8.23%
64 | O=C(O)C1(Nc2ccccc2)CCN(Cc2ccccc2)CC1 | inactive: 11.6%
65 | CCCOc1ccc(C(=O)NCC2(N(C)C)CCCCC2)cc1 | inactive: 7.28%
66 | CCOc1ncccc1C(=O)NCC1(N2CCOCC2)CCCCC1 | inactive: 28.1%
67 | CN1CCC(Nc2ccc(F)c(Cl)c2)CC1 | inactive: -13.5%
